Target: α7 nAChRs (Rattus norvegicus, UniProt Q05941)
Test: In vitro competitive binding experiment with [125I] α-bgt as radioactive standard
Parameters: species or system SD rats
Conditions: for Ki: read-out: Ki (nM), in vitro binding affinity to α7 nAChRs, 0.4 nM [125I] α-bgt, Cheng-Prusoff, mean of three measurements ± SD; for IC50: read-out: α7 nAChR IC50, inhibition of binding of 0.4 nM [125I] α-bgt

Amino acid sequences for entries named in this document (tags omitted). Residues count along the entry.
UniProt Q05941, 23-502 limits assumed: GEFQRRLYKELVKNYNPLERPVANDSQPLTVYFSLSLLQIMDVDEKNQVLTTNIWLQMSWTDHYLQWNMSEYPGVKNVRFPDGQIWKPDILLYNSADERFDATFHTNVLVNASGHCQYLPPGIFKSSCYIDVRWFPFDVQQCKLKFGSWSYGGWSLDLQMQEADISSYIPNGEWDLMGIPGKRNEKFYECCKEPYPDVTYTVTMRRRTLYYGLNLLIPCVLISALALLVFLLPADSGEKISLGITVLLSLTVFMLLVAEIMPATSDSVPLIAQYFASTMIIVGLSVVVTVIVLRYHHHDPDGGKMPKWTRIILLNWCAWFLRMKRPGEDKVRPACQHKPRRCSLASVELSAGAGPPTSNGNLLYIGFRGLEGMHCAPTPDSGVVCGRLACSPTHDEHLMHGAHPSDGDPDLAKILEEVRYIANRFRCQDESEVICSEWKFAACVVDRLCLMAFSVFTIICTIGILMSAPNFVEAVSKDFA

SMILES | Ki [nM] | IC50 [nM]
Fc1ncccc1-c1ccc2oc(N3CCN4CCC3CC4)nc2n1 | 21.8 | 
O=C(Oc1ccc2c(ccn2CCF)c1)N1CCN2CCC1CC2 | 365 | 
O=C(Oc1ccc2ccn(CCF)c2c1)N1CCN2CCC1CC2 | 224 | 
O=C1c2cc(F)ccc2-c2ccc(N3CCN4CCC3CC4)cc21 [II-6] | 7.24 | 20.9
O=C1c2cc(N3CCN4CCC3CC4)ccc2-c2cccc(F)c21 [II-15] | 2.98 | 6.23

— patent US20200147243A1, “LIGAND COMPOUND OF ALPHA7 NICOTINIC ACETYLCHOLINE RECEPTOR AND APPLICATION THEREOF” (BEIJING NORMAL UNIVERSITY, priority 2017, published 2020)
